Molecular target: Glutamate receptor 3 (Rattus norvegicus, UniProt P19492)
Experiment: Effective concentration of compound was determined for electrophysiological properties on Ionotropic glutamate receptor AMPA 3 (GluR3) using […] Xenopus laevis oocytes
Format: functional, cell-based, Oocyte

The chains behind the UniProt entries cited, without tags or fusion partners. Where a name states a change or a piece, a line headed by the entry shows the natural chain unless it says otherwise.
UniProt P19492: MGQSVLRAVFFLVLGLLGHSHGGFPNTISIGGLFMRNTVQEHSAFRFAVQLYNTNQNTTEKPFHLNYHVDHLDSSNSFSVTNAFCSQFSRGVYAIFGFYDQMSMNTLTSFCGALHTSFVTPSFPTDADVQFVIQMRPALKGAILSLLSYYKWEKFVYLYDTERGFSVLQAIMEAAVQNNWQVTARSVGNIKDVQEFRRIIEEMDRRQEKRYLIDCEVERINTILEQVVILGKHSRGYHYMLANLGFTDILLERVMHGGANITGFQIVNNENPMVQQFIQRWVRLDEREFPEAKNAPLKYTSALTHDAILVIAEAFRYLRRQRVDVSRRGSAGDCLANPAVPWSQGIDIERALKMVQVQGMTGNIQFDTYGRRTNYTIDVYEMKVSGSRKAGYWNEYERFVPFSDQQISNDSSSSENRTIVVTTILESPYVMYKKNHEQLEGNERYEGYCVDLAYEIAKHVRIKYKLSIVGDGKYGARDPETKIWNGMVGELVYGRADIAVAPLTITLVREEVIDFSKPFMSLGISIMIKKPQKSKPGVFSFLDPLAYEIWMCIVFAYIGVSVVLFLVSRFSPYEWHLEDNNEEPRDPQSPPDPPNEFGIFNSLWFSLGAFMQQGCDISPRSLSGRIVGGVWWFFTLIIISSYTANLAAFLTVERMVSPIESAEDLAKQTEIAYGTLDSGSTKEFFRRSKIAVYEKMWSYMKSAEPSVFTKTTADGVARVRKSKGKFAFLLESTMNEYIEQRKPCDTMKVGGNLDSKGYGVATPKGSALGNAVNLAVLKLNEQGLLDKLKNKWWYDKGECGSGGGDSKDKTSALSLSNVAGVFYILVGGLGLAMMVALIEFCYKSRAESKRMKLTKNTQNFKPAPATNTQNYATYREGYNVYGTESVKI

SMILES: Cc1onc(O)c1CC(N)C(=O)O [(R,S)-AMPA]
- EC50: 1400 nM
